# From PubChem BioAssay AID588814 (The Scripps Research Institute Molecular Screening Center, 2011)
# The chains behind the UniProt entries cited, without tags or fusion partners.
# UniProt P11229, whole entry: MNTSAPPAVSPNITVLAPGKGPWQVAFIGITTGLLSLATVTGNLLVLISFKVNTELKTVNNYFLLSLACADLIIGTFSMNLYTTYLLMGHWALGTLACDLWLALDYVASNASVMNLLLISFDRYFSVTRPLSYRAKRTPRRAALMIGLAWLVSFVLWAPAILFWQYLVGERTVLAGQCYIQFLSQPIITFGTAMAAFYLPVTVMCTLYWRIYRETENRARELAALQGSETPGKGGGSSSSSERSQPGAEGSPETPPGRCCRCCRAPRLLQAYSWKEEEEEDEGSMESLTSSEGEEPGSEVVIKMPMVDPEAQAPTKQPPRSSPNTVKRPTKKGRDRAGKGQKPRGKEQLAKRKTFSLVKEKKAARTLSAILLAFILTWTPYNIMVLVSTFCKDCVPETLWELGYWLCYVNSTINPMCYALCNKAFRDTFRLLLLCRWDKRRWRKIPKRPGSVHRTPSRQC
# This is a selection; strong and weak results do not stand in their true shares. Some salts or complexes appear as unconnected parts, following the source record. Active and inactive are the calls of the source.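 The calls were made as follows: active = activation above the run's mean compound activation plus 3 SD (cut at about 16% in these data); inactive = the rest.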
# Molecular target: Muscarinic acetylcholine receptor M1 (Homo sapiens) (UniProt P11229)
# Test: CHRM1 activation via calcium signal – Fluo-8 calcium fluorescence, CHO-K1 cells, HTS, primary screen (AID 588814);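 also: peak over basal fluorescence ratio within a 140 s kinetic read after compound addition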
# Settings: CHO-K1 hM1, Fluo-8 calcium fluorescence, agonist mode; at 3 µM; stronger effect = higher value; 0% DMSO, 100% acetylcholine EC100
row,Structure (SMILES),activation
1,Cc1ccccc1NP(C)(=O)Nc1ccccc1C,inactive: -3.56%
2,CP(=O)(Nc1ccc2c(c1)OCCO2)Oc1ccccc1 (stereo not drawn),inactive: -2.74%
3,CCOP(C)(=S)SCC(=O)NC(C)(CC)C(=O)O (stereo not drawn),inactive: -1.58%
4,CP(=O)(Nc1ccc(SC(F)(F)F)cc1)Oc1ccc(F)cc1 (stereo not drawn),inactive: -2.43%
5,Cc1c(C(c2ccc3c(c2)OCO3)c2c(C)n(C)n(-c3ccccc3)c2=O)c(=O)n(-c2ccccc2)n1C.O=[N+]([O-])c1cc([N+](=O)[O-])c(O)c([N+](=O)[O-])c1,inactive: -3.23%
6,Cc1cc(-c2cccc3ccccc23)c(C)cn1.O=[N+]([O-])c1cc([N+](=O)[O-])c(O)c([N+](=O)[O-])c1,inactive: -4.36%
7,O=[N+]([O-])c1cc([N+](=O)[O-])c(NCC2CCS(=O)(=O)C2)c([N+](=O)[O-])c1 (stereo not drawn),inactive: -6.06%
8,O=[N+]([O-])c1ccc(OP2(=O)COCCO2)cc1 (stereo not drawn),inactive: -4.52%
9,COc1ccc(NP(C)(=O)Oc2ccccc2OC)cc1 (stereo not drawn),inactive: -1.84%
10,CN(C)CCOC(=O)C(O)(c1ccccc1)C1CCCCC1 (stereo not drawn),inactive: -4.78%
11,CN(C)C1(CNC(=O)c2ccc(Cl)c(S(N)(=O)=O)c2)CCCCC1,inactive: -5.62%
12,COc1ccc(OP(C)(=O)Nc2cccc(Br)c2)cc1 (stereo not drawn),inactive: -3.43%
13,O=[N+]([O-])c1cc([N+](=O)[O-])c(OC2CCCCC2O)c([N+](=O)[O-])c1 (stereo not drawn),inactive: -2.32%
14,CCCCCOc1ccc(NP(C)(=O)Oc2ccc(Cl)cc2Cl)cc1 (stereo not drawn),inactive: -2.2%
15,CP(=O)(Nc1ccccc1)Oc1ccc(F)cc1 (stereo not drawn),inactive: -3.95%
16,CCN(CC)CCCOC(=O)C(O)(c1ccccc1)C1CCCCC1 (stereo not drawn),inactive: -3.86%
17,Cc1c([N+](=O)[O-])cc([N+](=O)[O-])c(Br)c1[N+](=O)[O-],inactive: -2.81%
18,COc1ccc(OP(C)(=O)Nc2ccc(SC(F)(F)F)cc2)cc1 (stereo not drawn),inactive: -4.71%
19,CCOC(=O)c1ccc(NP(C)(=O)Oc2ccc(F)cc2)cc1 (stereo not drawn),inactive: -3.08%
20,COc1ccc2c(c1O)-c1c(O)c(OC)cc3c1[C@H](C2)[N+](C)(C)CC3.O=[N+]([O-])c1cc([N+](=O)[O-])c([O-])c([N+](=O)[O-])c1[O-],inactive: -0.21%
21,O=C(OCCN1CCN(CCOCc2ccccc2)CC1)C(O)(c1ccccc1)c1ccccc1,inactive: -8.53%
22,O=C(OC1CN2CCC1CC2)c1ccc([N+](=O)[O-])cc1 (stereo not drawn),inactive: -7.57%
23,CC(C)c1ccc(OP(C)(=O)Nc2ccc(SC(F)(F)F)cc2)cc1 (stereo not drawn),inactive: -13.3%
